Reference: patent US4652586A, “Selective beta-2 adrenergic antagonists for the treatment of glaucoma” (priority 1980, dated 1987)

Legend:
heart adenylate cyclase = settings: read-out: Adenylate Cyclase Ki, Heart (G); cited from earlier work
[1] = target: rabbit heart isoproterenol-stimulated adenylate cyclase; assay: rabbit heart isoproterenol-stimulated adenylate cyclase; assay type: biochemical; settings: Table III
[2] = system: rabbit ciliary process adenylate cyclase (beta2-adrenergic receptors); assay: rabbit ciliary process isoproterenol-stimulated adenylate cyclase; settings: Table III; rabbit heart vs rabbit ciliary process; ±20%

Ki heart / Ki Ciliary Process = beta2/beta1 potency ratio [2] | Compound | Ki (heart adenylate cyclase) [µM] | Ki [1] [µM]
 | CC(C)NCC(O)COc1ccc(CC(N)=O)cc1 (stereo not drawn) [Atenolol, atenolol] | 4.1 | 4.1
3.6 | CC(C)(C)NC[C@H](O)COc1nsnc1N1CCOCC1 [Timolol, timolol] |  | 
